PubChem BioAssay AID772 (SRMLSC, 2007)
Only a part is listed here, and it is no random draw. Active and inactive are the calls of the source.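 Rule for the calls: active = growth inhibition above 90%, meaning viable cell count cut by more than 90% versus vehicle controls; inactive = growth inhibition below 90%.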

Assay: HT29 colon tumor cell growth inhibition, primary screen, imaging, high content imaging, 72 h, CellTiter-Glo (AID 772)
Conditions: HCS imaging cell count, at 10 µM, stronger effect = higher value

Structure (SMILES) | growth inhibition
CCN(CC)CC(O)COC(=O)C(O)(c1ccccc1)C1CCCCC1 (stereo unspecified) | inactive: 7.81%
